Earlier results as cited in US12251363B2, “Compositions to enhance a non-surgical medical treatment” (Anti-Plasmin Technologies, LLC, priority 2017, dated 2025).

Details: dermal filler procedure; cited from earlier work

## NC[C@H]1CC[C@H](C(=O)O)CC1 [tranexamic acid]
  time in contact with hyaluronic acid material in the skin before tranexamic acid is metabolized by the body: no more than 18 hours
